These results are taken from PMC11842024, “Reversible male contraception by targeted inhibition of serine/threonine kinase 33” (Science (New York, N.Y.), 2024).

Chains of the proteins cited; added tags and fusions are not shown. Residues count along the entry.
UniProt Q9HAZ1, whole entry: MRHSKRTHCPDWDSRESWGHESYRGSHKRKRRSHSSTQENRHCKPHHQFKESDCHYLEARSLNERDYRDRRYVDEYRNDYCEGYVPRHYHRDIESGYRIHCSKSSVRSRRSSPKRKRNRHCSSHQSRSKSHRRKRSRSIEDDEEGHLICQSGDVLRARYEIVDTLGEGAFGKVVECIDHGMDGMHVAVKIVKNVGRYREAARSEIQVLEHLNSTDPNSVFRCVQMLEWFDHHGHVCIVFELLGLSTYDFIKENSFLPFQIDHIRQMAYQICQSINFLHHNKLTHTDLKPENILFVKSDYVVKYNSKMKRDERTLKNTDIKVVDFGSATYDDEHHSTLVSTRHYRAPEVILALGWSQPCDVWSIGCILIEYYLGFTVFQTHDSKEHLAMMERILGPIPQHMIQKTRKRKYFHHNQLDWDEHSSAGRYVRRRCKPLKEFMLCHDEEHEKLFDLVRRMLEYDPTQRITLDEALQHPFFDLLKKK
UniProt Q9BYT3, whole entry: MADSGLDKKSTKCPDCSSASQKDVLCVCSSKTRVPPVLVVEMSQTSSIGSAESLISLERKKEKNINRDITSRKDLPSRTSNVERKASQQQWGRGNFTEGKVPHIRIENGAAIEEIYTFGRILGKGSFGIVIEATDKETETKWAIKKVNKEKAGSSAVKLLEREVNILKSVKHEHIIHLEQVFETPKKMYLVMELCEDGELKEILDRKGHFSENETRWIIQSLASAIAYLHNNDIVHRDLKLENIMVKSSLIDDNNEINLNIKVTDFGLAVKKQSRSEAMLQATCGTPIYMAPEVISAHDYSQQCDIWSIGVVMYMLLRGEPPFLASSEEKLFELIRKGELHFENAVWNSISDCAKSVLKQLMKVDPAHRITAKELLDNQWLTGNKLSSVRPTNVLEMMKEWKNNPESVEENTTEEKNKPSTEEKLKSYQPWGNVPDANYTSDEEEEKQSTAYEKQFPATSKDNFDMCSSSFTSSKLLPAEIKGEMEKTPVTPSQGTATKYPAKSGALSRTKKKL
UniProt P49759, whole entry: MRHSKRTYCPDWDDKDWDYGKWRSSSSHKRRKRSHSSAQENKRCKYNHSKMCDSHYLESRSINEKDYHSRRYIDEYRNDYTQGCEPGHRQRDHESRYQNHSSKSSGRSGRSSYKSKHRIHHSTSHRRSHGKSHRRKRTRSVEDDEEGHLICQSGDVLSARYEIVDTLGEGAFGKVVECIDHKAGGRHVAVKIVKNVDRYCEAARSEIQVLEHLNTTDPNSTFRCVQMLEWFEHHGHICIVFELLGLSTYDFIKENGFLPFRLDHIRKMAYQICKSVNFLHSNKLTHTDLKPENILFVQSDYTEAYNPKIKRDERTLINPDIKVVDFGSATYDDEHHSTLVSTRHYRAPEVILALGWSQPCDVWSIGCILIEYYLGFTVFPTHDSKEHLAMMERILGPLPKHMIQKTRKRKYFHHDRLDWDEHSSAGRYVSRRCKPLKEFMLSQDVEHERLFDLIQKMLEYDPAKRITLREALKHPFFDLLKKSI
UniProt P07949, 29-1114 limits assumed: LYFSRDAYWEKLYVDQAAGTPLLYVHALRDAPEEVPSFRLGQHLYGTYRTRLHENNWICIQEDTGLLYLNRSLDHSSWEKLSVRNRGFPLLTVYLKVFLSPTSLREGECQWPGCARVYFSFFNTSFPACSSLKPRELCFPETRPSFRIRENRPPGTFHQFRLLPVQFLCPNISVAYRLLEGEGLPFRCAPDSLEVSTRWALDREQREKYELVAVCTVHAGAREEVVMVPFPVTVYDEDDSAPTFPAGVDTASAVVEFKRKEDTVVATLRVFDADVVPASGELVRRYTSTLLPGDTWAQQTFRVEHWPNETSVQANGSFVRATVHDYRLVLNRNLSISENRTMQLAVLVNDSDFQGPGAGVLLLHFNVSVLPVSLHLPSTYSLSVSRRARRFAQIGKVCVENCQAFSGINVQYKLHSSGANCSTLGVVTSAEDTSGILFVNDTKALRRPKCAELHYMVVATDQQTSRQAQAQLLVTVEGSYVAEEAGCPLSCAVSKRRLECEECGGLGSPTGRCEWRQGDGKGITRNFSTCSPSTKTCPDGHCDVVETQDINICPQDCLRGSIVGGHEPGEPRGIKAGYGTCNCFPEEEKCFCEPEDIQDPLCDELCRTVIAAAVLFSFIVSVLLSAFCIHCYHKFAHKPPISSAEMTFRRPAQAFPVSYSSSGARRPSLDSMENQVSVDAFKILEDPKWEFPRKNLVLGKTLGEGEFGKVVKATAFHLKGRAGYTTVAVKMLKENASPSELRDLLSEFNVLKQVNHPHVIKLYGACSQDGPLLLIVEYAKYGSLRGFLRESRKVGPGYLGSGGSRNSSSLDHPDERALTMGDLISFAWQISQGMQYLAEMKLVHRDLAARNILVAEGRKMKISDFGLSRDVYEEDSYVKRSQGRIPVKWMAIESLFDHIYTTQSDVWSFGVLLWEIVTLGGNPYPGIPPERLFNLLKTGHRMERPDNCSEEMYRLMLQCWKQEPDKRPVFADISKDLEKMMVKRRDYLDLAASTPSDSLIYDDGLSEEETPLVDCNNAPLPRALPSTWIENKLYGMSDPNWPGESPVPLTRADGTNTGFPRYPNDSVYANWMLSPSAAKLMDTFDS
UniProt P49760, whole entry: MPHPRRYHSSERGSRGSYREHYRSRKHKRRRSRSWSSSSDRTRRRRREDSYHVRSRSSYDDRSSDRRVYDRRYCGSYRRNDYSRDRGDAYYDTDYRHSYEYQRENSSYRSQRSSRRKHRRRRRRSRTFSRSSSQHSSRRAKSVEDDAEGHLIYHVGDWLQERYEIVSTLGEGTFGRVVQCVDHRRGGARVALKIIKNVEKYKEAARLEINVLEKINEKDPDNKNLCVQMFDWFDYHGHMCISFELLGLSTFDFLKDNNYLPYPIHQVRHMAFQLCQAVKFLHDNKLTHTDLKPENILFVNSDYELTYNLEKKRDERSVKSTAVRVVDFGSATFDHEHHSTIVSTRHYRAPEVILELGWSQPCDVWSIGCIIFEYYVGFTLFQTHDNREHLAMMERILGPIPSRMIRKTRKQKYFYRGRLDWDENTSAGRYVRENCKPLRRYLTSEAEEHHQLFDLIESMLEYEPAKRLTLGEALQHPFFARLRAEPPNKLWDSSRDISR

The structures appear in SMILES notation. Where two headings read alike, the source gives them in different places.

Assay [1] concerns the target T1, CLK4 (Homo sapiens, UniProt Q9HAZ1). As to the kind of experiment: LanthaScreen binding assay (ThermoFisher SelectScreen). To be noted: read-out: LanthaScreen Kd CLK4. From the text: (§1) In vitro biochemical assays. Several small molecule assays were outsourced to SelectScreen Services (ThermoFisher) for STK33 and for off-target kinases (data sets are available on demand).
(§2) These assays are LanthaScreen (binding assay) and Z’-LYTE (activity assay). Dose-responses were done with at least 5 different concentrations in duplicates, and parameters were optimized by calculations described below and provided with standard errors.
(§3) Calculation of Kd values for kinase inhibitors that bind to the ATP pocket of a kinase from LanthaScreen binding data. DynaFit (71) was used to fit complex equilibria where a tracer is displaced by a dilution series of a kinase inhibitor. This method relies on the concentration of inhibitor, as well as the concentration of kinase and tracer, and Kd of the tracer. The latter three parameters are tabulated by ThermoFisher for each kinase in the LanthaScreen assay panel. […]

Assay [2] addresses T2, STK33 (Homo sapiens, UniProt Q9BYT3). To be noted: read-out: reported IC50 in biochemical assays; cited from earlier work.
Assay [3] concerns the target T3, CLK1 (Homo sapiens, UniProt P49759). As to the kind of experiment: Z'-LYTE activity assay (ThermoFisher SelectScreen). Conditions: read-out: Z'LYTE Ki CLK1; [ATP] = Kmapp.
Excerpt: as §1
(§4) These assays are LanthaScreen (binding assay) and Z’-LYTE (activity assay). Dose-responses were done with at least 5 different concentrations in duplicates, and parameters were optimized by calculations described below and provided with standard errors. […]
(§5) Calculation of Ki values for kinase inhibitors from Z’-LYTE inhibition data. The Morrison equation with [ATP] = Kmapp for competitive inhibition (GraphPad Prism 7, San Diego, CA) was used to get Ki values. Since Kd and Ki values are defined the same way, in other words, Kd = [E] [I] / [EI] = Ki, Kd and Ki values can be compared. […]

The target of assay [4] is T4, RET (Homo sapiens, UniProt P07949). As to the kind of experiment: Z'-LYTE activity assay (ThermoFisher SelectScreen). Conditions: read-out: Z'LYTE Ki RET; [ATP] = Kmapp.
Excerpt: as §1, §4, §5

The target in assay [5] is T5, CLK2 (Homo sapiens, UniProt P49760). The experiment in a line: Z'-LYTE activity assay (ThermoFisher SelectScreen). To be noted: read-out: Z'LYTE Ki CLK2; [ATP] = Kmapp.
Excerpt: as §1, §4, §5

The target of assay [6] is T2, STK33. As to the kind of experiment: NanoBRET target engagement intracellular kinase assay. Conditions: read-out: NanoBRET IC50 STK33; HEK293 cells, 2 hours incubation. The method, then:
(§6) NanoBRET Target Engagement intracellular kinase assay. HEK293T cells were cultured in […]
(§7) The cell line underwent authentication by short tandem repeat (STR) profiling at Cytogenetics and Cell Authentication Core (CCAC) at MD Anderson Cancer Center. NanoBRET Target Engagement intracellular kinase assay, K-10 assay (Cat. # N2641), K-9 assay (Cat. # N2631), transfection reagent FuGENE HD (Cat. # E2311), transfection carrier DNA (Cat. # E4881), NanoLuc-STK33 fusion vector (Cat. # NV2111), NanoLuc-RET fusion vector (Cat. # NV1951), NanoLuc-CLK1 fusion vector (Cat. # NV1131), NanoLuc-CLK2 fusion vector (Cat. # NV1141), and NanoLuc-CLK4 fusion vector (Cat. # NV1151) were purchased from Promega. The measurement of test compound engagement with cellular target protein was performed in a 384-well format according to manufacturer’s instructions. HEK293 cells were transiently transfected with NanoLuc (STK33, RET, CLK1, CLK2, and CLK4) fusion vectors. After 36 hours of transfection, cells were treated with a fixed concentration of tracer (recommended by Promega) followed by compounds (inhibitors) for 2 hours of incubation. To determine the test compound […]
(§8) 0.4 nM at a fixed tracer concentration. Staurosporine was measured in parallel as a positive control.
(§9) Freshly prepared NanoBRET Nano-Glo substrate plus extracellular NanoLuc inhibitor was then added to initiate the subsequent bioluminescence resonance energy transfer (BRET) measurements using a CLARIOstar Plus BMG LABTECH plate reader. Data analysis was done by measuring the ratio of acceptor emission to donor emission (BRET ratio) and normalized by subtracting no-tracer-control-background. IC50 values were obtained by nonlinear regression using a four-parameter equation in GraphPad Prism 7 (San Diego, CA).
A general note: BRET reads energy transfer from a luciferase to a nearby fluorophore.

The target of assay [7] is T3, CLK1. Described as above. Conditions: read-out: NanoBRET IC50 CLK1; HEK293 cells, 2 hours incubation. As for the experimental part: as §6, §7, §8, §9
In assay [8] the target is T4, RET. The assay is described as above. To be noted: read-out: NanoBRET IC50 RET; HEK293 cells, 2 hours incubation. The method, then:
as §6, §7, §8, §9

Assay [9] concerns the target T1, CLK4. Described as above. To be noted: read-out: NanoBRET IC50 CLK4; HEK293 cells, 2 hours incubation. As for the experimental part: as §6, §7, §8, §9
Assay [10] has as its target T5, CLK2. Described as above. To be noted: read-out: NanoBRET IC50 CLK2; HEK293 cells, 2 hours incubation. The method, then:
as §6, §7, §8, §9

Assay [11] addresses T2, STK33. The experiment in a line: LanthaScreen binding assay (ThermoFisher SelectScreen). Conditions: read-out: LanthaScreen Kd STK33.
Excerpt: as §1, §2, §3
Since Kd and Ki values are defined the same way, in other words, Kd = [E] [I] / [EI] = Ki, Kd and Ki values can be compared. […]
(In TR-FRET formats the signal depends on donor and acceptor labels being close together.)

The term Kd denotes the equilibrium constant for the complex coming apart. What is called IC50 is the concentration that gives 50% inhibition. The term Ki denotes the equilibrium dissociation constant of an inhibitor or competing ligand from its target. `CC(=O)NC[C@@H]1C[C@@H](NS(=O)(=O)c2cccc3cncc(C)c23)CN1`: the Kd at CLK4 [1] is above 1000 nM; on STK33 [11], 1.2 nM. The IC50 is 11 nM on STK33 [2]; 11800 nM at STK33 [6]; above 40000 nM at CLK1 [7]; above 40000 nM at RET [8]; above 40000 nM on CLK4 [9]; above 40000 nM at CLK2 [10]. Besides, the values for the Ki on CLK1 [3], at RET [4] and at CLK2 [5] were above 1000 nM, 45.9 nM and above 1000 nM, respectively.

Regarding `COc1ccc(-n2ncc3cnc(Nc4ccc(N5CCN(C)CC5)c(OC)c4)nc32)cc1`, the Kd at CLK4 [1] is 1.2 nM; on STK33 [11] it was 1.7 nM. The IC50 is 7 nM at STK33 [2]; 750 nM at STK33 [6]; 410 nM on CLK1 [7]; 960 nM at RET [8]; 41 nM on CLK4 [9]; 200 nM at CLK2 [10]. The Ki at CLK1 [3] was 2.2 nM; at RET [4], 2.6 nM; on CLK2 [5], 8.7 nM.
